{
  "source": "paper PMC4266338",
  "about": "(ACS Medicinal Chemistry Letters, 2014)",
  "tested_on": "CHOP, spliced XBP1, GADD34, ERCC1 transcripts",
  "experiment": "qRT-PCR of UPR and CHOP target genes in UMSCC23 cells",
  "assay_type": "cell-based, human",
  "settings": "dose–response, 6 h",
  "data": [
    {"compound": "O=C(Nc1ccc(S(=O)(=O)N2CCC(Cl)CC2)cc1)c1ccc([N+](=O)[O-])o1", "note": "[Compound 12]", "values": [
      {"measurement": "DNA repair gene ERCC1 expression", "result": "not increased"},
      {"measurement": "transcripts for CHOP", "result": "increased"},
      {"measurement": "transcripts for GADD34", "result": "increased"},
      {"measurement": "transcripts for spliced XBP1", "result": "increased"}
    ]}
  ]
}
